Biological target: T1, UGT1A3 (Homo sapiens, UniProt P35503)
T1 sequence (P35503 29-534): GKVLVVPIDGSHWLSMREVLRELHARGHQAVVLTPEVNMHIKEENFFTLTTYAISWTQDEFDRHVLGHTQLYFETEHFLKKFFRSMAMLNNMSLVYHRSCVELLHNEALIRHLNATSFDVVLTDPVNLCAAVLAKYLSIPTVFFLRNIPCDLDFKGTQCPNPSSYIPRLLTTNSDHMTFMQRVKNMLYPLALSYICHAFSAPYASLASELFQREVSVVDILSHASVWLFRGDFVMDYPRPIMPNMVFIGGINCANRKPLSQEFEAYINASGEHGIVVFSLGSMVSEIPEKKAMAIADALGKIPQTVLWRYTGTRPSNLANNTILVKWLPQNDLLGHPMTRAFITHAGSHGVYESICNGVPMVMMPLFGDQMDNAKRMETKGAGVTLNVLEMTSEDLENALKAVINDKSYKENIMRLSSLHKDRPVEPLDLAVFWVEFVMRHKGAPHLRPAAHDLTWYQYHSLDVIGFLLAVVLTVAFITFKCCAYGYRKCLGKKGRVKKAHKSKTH
Details: HLMs, substrate concentration 60 μM; phenylbutazone 500 μM, glycyrrhetinic acid 50 μM, β-estradiol 100 μM

`CCCCC1C(=O)N(c2ccccc2)N(c2ccccc2)C1=O` [phenylbutazone] was tested, and the “inhibition of the formation of M-2 (16-O-glucuronate)” value was “significantly inhibited”.
